BindingDB's records for patent US9481672 (Bayer Pharma Aktiengesellschaft, 2016)

The compounds below were run against T1, chymase (Golden hamster, UniProt A0A1U7QTH6). Conditions: IC50 (nM).
T1 sequence (A0A1U7QTH6 whole entry): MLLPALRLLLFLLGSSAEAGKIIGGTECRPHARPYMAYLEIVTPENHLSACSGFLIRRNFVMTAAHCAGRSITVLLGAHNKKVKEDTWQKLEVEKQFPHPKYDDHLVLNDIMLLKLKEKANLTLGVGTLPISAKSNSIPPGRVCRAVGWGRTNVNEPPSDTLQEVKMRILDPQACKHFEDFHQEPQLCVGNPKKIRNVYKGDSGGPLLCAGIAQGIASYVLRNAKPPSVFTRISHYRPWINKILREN

SMILES | IC50
Cn1ncc2cc(-n3cc(C(=O)O)c(=O)n([C@@H]4CCc5c4cccc5C(F)(F)F)c3=O)ccc21 [US9481672, 176] | 29 nM
CN1C(=O)C(C)(C)c2cc(-n3cc(C(=O)O)c(=O)n(Cc4cccc(Cl)c4C(F)(F)F)c3=O)ccc21 [US9481672, 220] | 6 nM
CCOC(=O)c1cn(-c2ccc3c(c2)n(CC)c(=O)n3C)c(=O)n([C@@H]2CCc3c2cccc3C(F)(F)F)c1=O [US9481672, 113] | 6 nM
Cn1c(=O)sc2cc(-n3cc(C(=O)O)c(=O)n([C@H]4CCCc5c4cccc5C(F)(F)F)c3=O)ccc21 (single isomer, unassigned) [US9481672, 301] | 33 nM
Cn1c(=O)oc2cc(-n3cc(C(=O)O)c(=O)n([C@H]4CCCc5c(Cl)cccc54)c3=O)ccc21 (single isomer, unassigned) [US9481672, 289] | 970 nM
CCOC(=O)c1cn(-c2ccc3c(c2)sc(=O)n3C)c(=O)n(Cc2cccc(C(F)(F)F)c2C)c1=O [US9481672, 48] | 17 nM
Cc1c(Cn2c(=O)c(C(=O)O)cn(-c3ccc4c(c3)C3(CC3)C(=O)N4C)c2=O)cccc1C(F)(F)F [US9481672, 226] | 3 nM
Cc1c(Cn2c(=O)c(C(=O)O)cn(-c3ccc4c(c3)N(C)C(=O)C4(C)C)c2=O)cccc1C(F)(F)F [US9481672, 205] | 3 nM
Cn1c(=O)n(C)c2cc(-n3cc(C(=O)O)c(=O)n(Cc4cc(F)cc(Cl)c4)c3=O)ccc21 [US9481672, 129] | 450 nM
CCOC(=O)c1cn(-c2ccc3c(c2)n(C)c(=O)n3C)c(=O)n(C2CCCc3c(Cl)cccc32)c1=O (racemic) [US9481672, 269] | 14 nM
CCOC(=O)c1cn(-c2ccc3c(c2)n(C2CC2)c(=O)n3C)c(=O)n([C@@H]2CCc3c2cccc3C(F)(F)F)c1=O [US9481672, 117] | 3 nM
CCOC(=O)c1cn(-c2ccc3c(c2)n(CCC(F)(F)F)c(=O)n3C)c(=O)n([C@@H]2CCc3c2cccc3C(F)(F)F)c1=O [US9481672, 116] | 20 nM
CC(c1cccc(C(F)(F)F)c1Cl)n1c(=O)c(C(=O)O)cn(-c2ccc3c(c2)oc(=O)n3C)c1=O (racemic) [US9481672, 256] | 170 nM
CCOC(=O)c1cn(-c2ccc3c(c2)oc(=O)n3C)c(=O)n(Cc2cccc(C(F)(F)F)c2Cl)c1=O [US9481672, 41] | 23 nM
CCOC(=O)c1cn(-c2ccc3c(c2)n(C2CCC2)c(=O)n3C)c(=O)n(Cc2cccc(C(F)(F)F)c2C)c1=O [US9481672, 33] | 4 nM
CCOC(=O)c1cn(-c2ccc3c(c2)OCC(=O)N3C)c(=O)n(Cc2cccc(C(F)(F)F)c2C)c1=O [US9481672, 266] | 59 nM
CCOC(=O)c1cn(-c2ccc3c(c2)sc(=O)n3C)c(=O)n(C2CCc3c(Cl)cc(Cl)cc32)c1=O (racemic) [US9481672, 249] | 200 nM
CCOC(=O)c1cn(-c2ccc3c(c2)oc(=O)n3C)c(=O)n(C2CCCc3c2cccc3C(F)(F)F)c1=O (racemic) [US9481672, 290] | 8 nM
CCOC(=O)c1cn(-c2ccc3c(c2)C(C)(C)C(=O)N3C)c(=O)n(Cc2cccc(C(F)(F)F)c2Cl)c1=O [US9481672, 52] | 16 nM
CCOC(=O)c1cn(-c2ccc3c(cnn3C)c2)c(=O)n([C@@H]2CCc3c2cccc3C(F)(F)F)c1=O [US9481672, 76] | 41 nM
CCOC(=O)c1cn(-c2ccc3c(c2)n(C)c(=O)n3C)c(=O)n(C(C)c2cccc(C(F)(F)F)c2C)c1=O (racemic) [US9481672, 251] | 420 nM
Cn1c(=O)n(C)c2cc(-n3cc(C(=O)O)c(=O)n(C4CCc5c(F)cc(F)cc54)c3=O)ccc21 (racemic) [US9481672, 231] | 21 nM
CCn1c(=O)n(C)c2ccc(-n3cc(C(=O)O)c(=O)n(Cc4cccc(Cl)c4C(F)(F)F)c3=O)cc21 [US9481672, 139] | 2 nM
Cn1c(=O)oc2cc(-n3cc(C(=O)O)c(=O)n(C4CCCc5c(Cl)cccc54)c3=O)ccc21 (racemic) [US9481672, 284] | 11 nM
Cn1c(=O)oc2cc(-n3cc(C(=O)O)c(=O)n([C@@H]4CCCc5c(Cl)cccc54)c3=O)ccc21 (single isomer, unassigned) [US9481672, 288] | 14 nM
Cn1c(=O)oc2cc(-n3cc(C(=O)O)c(=O)n([C@@H]4CCCc5c4cccc5C(F)(F)F)c3=O)ccc21 (single isomer, unassigned) [US9481672, 294] | 2 nM

SMILES | IC50
CC(C)n1cnc2cc(-n3cc(C(=O)O)c(=O)n(Cc4cccc(C(F)(F)F)c4Cl)c3=O)ccc21 [US9481672, 171] | 17 nM
Cc1cc2[nH]c(=O)[nH]c2cc1-n1cc(C(=O)O)c(=O)n(Cc2cccc(C(F)(F)F)c2Cl)c1=O [US9481672, 264] | 31 nM
CCn1c(=O)oc2cc(-n3cc(C(=O)O)c(=O)n(Cc4cccc(C(F)(F)F)c4C)c3=O)ccc21 [US9481672, 192] | 5 nM
CCOC(=O)c1cn(-c2ccc3c(c2)oc(=O)n3C)c(=O)n(C2COCc3c(Cl)cccc32)c1=O (racemic) [US9481672, 302] | 19 nM
Cn1cnc2cc(-n3cc(C(=O)O)c(=O)n(Cc4cccc(Cl)c4C(F)(F)F)c3=O)ccc21 [US9481672, 161] | 53 nM
CCOC(=O)c1cn(-c2ccc3c(c2)C(C)(O)C(=O)N3C)c(=O)n(Cc2cccc(C(F)(F)F)c2Cl)c1=O (racemic) [US9481672, 62] | 44 nM
Cn1c(=O)oc2cc(-n3cc(C(=O)O)c(=O)n(C4CCCc5c4cccc5C(F)(F)F)c3=O)ccc21 (racemic) [US9481672, 291] | 4 nM
Cn1c(=O)sc2cc(-n3cc(C(=O)O)c(=O)n([C@@H]4CCCc5c4cccc5C(F)(F)F)c3=O)ccc21 (single isomer, unassigned) [US9481672, 300] | 2 nM
Cc1nc2cc(-n3cc(C(=O)O)c(=O)n(Cc4cccc(F)c4C(F)(F)F)c3=O)ccc2n1C1CCCCC1 [US9481672, 169] | 370 nM
Cn1c(=O)n(C)c2cc(-n3cc(C(=O)O)c(=O)n(Cc4cccc(F)c4C(F)(F)F)c3=O)ccc21 [US9481672, 125] | 6 nM
Cn1c(=O)sc2cc(-n3cc(C(=O)O)c(=O)n(C4CCCc5c4cccc5C(F)(F)F)c3=O)ccc21 (racemic) [US9481672, 296] | 3 nM
CCOC(=O)c1cn(-c2ccc3c(cnn3C)c2)c(=O)n(Cc2cccc(C(F)(F)F)c2Cl)c1=O [US9481672, 89] | 84 nM
CCOC(=O)c1cn(-c2ccc3c(c2)C(O)(C(F)(F)F)C(=O)N3C)c(=O)n(Cc2cccc(C(F)(F)F)c2C)c1=O (racemic) [US9481672, 63] | 37 nM
CCOC(=O)c1cn(-c2ccc3c(c2)n(C(=O)OC(C)(C)C)c(=O)n3C)c(=O)n([C@@H]2CCc3c2cccc3C(F)(F)F)c1=O [US9481672, 111] | 20 nM
CN1C(=O)C(C)(O)c2cc(-n3cc(C(=O)O)c(=O)n(Cc4cccc(C(F)(F)F)c4Cl)c3=O)ccc21 (racemic) [US9481672, 201] | 7 nM
CN1C(=O)C(C)(C)c2cc(-n3cc(C(=O)O)c(=O)n(Cc4cccc(C(F)(F)F)c4Cl)c3=O)ccc21 [US9481672, 218] | 4 nM
CC(=O)N1CC(C)(C)c2ccc(-n3cc(C(=O)O)c(=O)n(Cc4cccc(C(F)(F)F)c4C)c3=O)cc21 [US9481672, 213] | 18 nM
CN1C(=O)C2(CC2)c2cc(-n3cc(C(=O)O)c(=O)n(Cc4cccc(C(F)(F)F)c4Cl)c3=O)ccc21 [US9481672, 225] | 4 nM
Cn1c(=O)n(CC(O)C(F)(F)F)c2cc(-n3cc(C(=O)O)c(=O)n([C@@H]4CCc5c4cccc5C(F)(F)F)c3=O)ccc21 (mixture of isomers) [US9481672, 246] | 1 nM
CCn1c(=O)n(C)c2ccc(-n3cc(C(=O)O)c(=O)n(Cc4cccc(C(F)(F)F)c4Cl)c3=O)cc21 [US9481672, 140] | 1 nM
Cn1c(=O)n(CC(F)(F)F)c2cc(-n3cc(C(=O)O)c(=O)n([C@@H]4CCc5c4cccc5C(F)(F)F)c3=O)ccc21 [US9481672, 241] | 2 nM
Cn1nnc2cc(-n3cc(C(=O)O)c(=O)n(Cc4cccc(Cl)c4Cl)c3=O)ccc21 [US9481672, 156] | 12 nM
CCOC(=O)c1cn(-c2ccc3c(c2)C(C)(C)C(=O)N3C)c(=O)n(Cc2cccc(Cl)c2Cl)c1=O [US9481672, 56] | 67 nM
CCOC(=O)c1cn(-c2ccc3c(c2)n(CC(O)C(F)(F)F)c(=O)n3C)c(=O)n([C@@H]2CCc3c2cccc3C(F)(F)F)c1=O (stereo partly specified) [US9481672, 115] | 10 nM
CN1C(=O)OCc2cc(-n3cc(C(=O)O)c(=O)n([C@@H]4CCc5c4cccc5C(F)(F)F)c3=O)ccc21 [US9481672, 204] | 39 nM
